# Test results from BindingDB's records for patent US20230322769 (Jiangsu Chia Tai Fenghai Pharmaceutical, 2023).
# The chains behind the UniProt entries cited, without tags or fusion partners.
# UniProt P07949, whole entry: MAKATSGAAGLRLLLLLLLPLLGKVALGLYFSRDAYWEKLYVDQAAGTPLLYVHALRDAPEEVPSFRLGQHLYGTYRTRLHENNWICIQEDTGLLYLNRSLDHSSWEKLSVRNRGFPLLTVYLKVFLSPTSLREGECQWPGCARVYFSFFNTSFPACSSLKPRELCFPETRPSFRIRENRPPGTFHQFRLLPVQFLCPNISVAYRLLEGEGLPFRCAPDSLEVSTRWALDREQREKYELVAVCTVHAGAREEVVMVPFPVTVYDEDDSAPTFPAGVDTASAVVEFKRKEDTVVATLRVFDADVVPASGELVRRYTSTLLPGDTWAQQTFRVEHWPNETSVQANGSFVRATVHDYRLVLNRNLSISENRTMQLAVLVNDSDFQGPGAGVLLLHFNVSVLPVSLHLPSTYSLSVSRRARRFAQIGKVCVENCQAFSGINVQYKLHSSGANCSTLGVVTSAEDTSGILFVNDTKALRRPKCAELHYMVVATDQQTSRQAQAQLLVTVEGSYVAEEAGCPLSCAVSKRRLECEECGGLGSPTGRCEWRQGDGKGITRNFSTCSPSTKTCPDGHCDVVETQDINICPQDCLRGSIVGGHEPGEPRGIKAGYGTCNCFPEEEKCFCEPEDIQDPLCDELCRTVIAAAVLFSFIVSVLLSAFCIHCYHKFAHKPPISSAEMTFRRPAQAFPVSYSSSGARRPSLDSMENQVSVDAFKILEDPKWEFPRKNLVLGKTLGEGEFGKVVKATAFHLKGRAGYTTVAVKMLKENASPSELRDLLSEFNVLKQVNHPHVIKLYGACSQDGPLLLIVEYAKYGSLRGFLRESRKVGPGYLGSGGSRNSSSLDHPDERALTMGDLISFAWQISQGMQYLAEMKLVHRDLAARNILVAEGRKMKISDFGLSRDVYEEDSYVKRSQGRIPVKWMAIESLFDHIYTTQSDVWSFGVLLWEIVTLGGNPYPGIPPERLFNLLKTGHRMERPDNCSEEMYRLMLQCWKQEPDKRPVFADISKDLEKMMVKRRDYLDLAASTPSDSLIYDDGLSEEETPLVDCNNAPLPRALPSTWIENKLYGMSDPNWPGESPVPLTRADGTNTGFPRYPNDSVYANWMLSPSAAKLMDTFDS
# Target: Proto-oncogene tyrosine-protein kinase receptor Ret (Homo sapiens, UniProt P07949)
# Test: Inhibition of RET Family Kinases Activity
compound,measurement,value
"COc1ccc(CN2C3CC2CN(c2ccc(-c4cc(N(C)CC(C)(C)O)cn5ncc(C#N)c45)cn2)C3)cn1 [US20230322769, Compound 79]",IC50,11.8 nM
